Patent EP4831171A1, “FUSED RING COMPOUND, PHARMACEUTICAL COMPOSITION COMPRISING SAME, AND USE THEREOF” (dated 2026)

By UniProt entry, the sequences of proteins in these tests, tags left out.
UniProt Q14191, whole entry: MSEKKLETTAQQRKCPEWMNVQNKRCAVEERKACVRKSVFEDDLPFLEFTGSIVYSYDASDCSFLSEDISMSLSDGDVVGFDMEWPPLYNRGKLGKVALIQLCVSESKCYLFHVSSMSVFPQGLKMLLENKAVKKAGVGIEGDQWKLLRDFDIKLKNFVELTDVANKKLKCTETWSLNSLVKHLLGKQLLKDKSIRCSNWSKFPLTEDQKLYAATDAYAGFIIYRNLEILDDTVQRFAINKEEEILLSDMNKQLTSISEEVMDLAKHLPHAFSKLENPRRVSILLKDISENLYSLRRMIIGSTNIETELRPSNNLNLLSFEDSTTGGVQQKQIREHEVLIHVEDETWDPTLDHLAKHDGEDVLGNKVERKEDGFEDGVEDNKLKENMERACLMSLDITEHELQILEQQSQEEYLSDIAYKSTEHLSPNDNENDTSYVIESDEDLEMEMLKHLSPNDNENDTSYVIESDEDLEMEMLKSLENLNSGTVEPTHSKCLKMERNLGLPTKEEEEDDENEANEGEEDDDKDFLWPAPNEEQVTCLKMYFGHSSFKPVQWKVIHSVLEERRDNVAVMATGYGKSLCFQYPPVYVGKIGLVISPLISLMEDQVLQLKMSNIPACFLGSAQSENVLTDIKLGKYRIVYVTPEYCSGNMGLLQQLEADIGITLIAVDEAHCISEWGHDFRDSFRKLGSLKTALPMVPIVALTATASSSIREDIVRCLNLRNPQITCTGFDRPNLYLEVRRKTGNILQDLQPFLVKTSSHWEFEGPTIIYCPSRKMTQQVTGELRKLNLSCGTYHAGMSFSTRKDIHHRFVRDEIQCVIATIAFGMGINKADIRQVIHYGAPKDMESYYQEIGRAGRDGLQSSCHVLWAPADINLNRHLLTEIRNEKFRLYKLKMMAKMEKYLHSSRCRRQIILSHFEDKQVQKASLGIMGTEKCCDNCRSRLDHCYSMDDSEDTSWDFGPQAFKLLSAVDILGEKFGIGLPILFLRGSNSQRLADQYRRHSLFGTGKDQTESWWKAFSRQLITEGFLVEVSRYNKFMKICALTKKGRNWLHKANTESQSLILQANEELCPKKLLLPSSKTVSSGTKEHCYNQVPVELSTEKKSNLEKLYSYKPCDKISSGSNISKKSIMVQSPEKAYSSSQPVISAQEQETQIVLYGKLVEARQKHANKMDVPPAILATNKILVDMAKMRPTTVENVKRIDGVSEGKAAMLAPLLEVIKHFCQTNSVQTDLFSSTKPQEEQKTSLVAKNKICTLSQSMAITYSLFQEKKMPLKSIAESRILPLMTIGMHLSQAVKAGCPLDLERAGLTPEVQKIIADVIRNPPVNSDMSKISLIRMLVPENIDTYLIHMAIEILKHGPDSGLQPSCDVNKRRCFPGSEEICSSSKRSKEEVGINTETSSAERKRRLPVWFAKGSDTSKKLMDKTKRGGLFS

Tests used:
DLD1-WRN-KO cell line = test: Inhibitory activity assay for tumor cell proliferation (CellCounting-Lite), DLD1-WRN-KO control; conditions: read-out: DLD1-WRN-KO Proliferation inhibition IC50; WRN knockout DLD1 cells (off-target control); treatment for 4 days; highest concentration 10 µM
Experimental: A DLD1-WRN-KO cell line was constructed by stably knocking out the WRN gene in DLD1 cells using CRISPR/Cas9 technology, and the constructed cell line was used to evaluate potential off-target effects of the compounds.
(§1) After treatment of SW48 cell lines with microsatellite instability and the control DLD1-WRN-KO cell line using the test compounds for 4 days, ATP levels were measured using a CellCounting-Lite kit from Vazyme to evaluate inhibitory effects of the test compounds on the growth of tumor cell lines.
(§2) In the present application, the SW48 cell line and the DLD1-WRN-KO cell line were seeded into a 96-well cell culture plate at an appropriate cell density. After 24 h, the cells were treated with the test compounds at the highest concentration of 10 µM, followed by 1:3 serial dilution to obtain 9 concentration gradients, and a DMSO treatment group was set up separately. The cells were cultured in an incubator at 37 °C with 5% CO2 for 4 days. […] Chemiluminescence values were read using a Thermo Varioskan LUX-3020 multifunctional microplate reader for conversion to proliferation indices to calculate the inhibition rate of the compound on tumor cell proliferation, and the inhibition rate value and the logarithm value of the compound concentration were fitted using non-linear regression (dose response-variable slope) to obtain the IC50 value of the compound. […]

WRN helicase = WRN helicase (Homo sapiens, UniProt Q14191); test: ATPase activity assay of WRN helicase (ADP-Glo); conditions: read-out: WRN ATPase activity inhibition IC50; WRN 10 nM, ATP 300 µM, FLAP26 0.4 nM; 3 h preincubation at 37 °C, 30 min reaction at room temperature
Experimental: The ADP content generated by ATP hydrolysis catalyzed by WRN helicase was measured using a commercial ADP-Glo assay kit (Promega, #V9102), and the measured ADP level could reflect the ATPase activity of WRN helicase.
The 45 nt oligonucleotide single-stranded DNA FLAP26 ([…]) was synthesized by Azenta. Reference was made, for example, to Brosh RM Jr et al., J Biol Chem, 2002 Jun;277(26):23236-45. A reaction buffer (30 mM Tris pH 7.5, 2 mM MgCl2, 0.02% BSA, 50 mM NaCl, 0.1% pluronic F127) was prepared. […]
5 µL of the above mixture was transferred to a 384-well white plate, and 5 µL ofADP-Glo reagent was added. […] The mixture was mixed well by shaking and incubated at room temperature in the dark for 30 min, and then chemiluminescence readings were recorded. The inhibition rate of the compound on the enzyme activity was calculated, and the inhibition rate value and the logarithm value of the compound concentration were fitted using non-linear regression (dose response-variable slope) to obtain the IC50 value of the test compound. […]

SW48 cell line = test: Inhibitory activity assay for tumor cell proliferation (CellCounting-Lite), SW48; conditions: read-out: SW48 Proliferation inhibition IC50; SW48 cells with microsatellite instability; treatment for 4 days; highest concentration 10 µM
Experimental: as §1, §2

IC50 (DLD1-WRN-KO cell line): > 10000 nM | IC50 (WRN helicase): 9 nM | IC50 (SW48 cell line): 14 nM
Structure (SMILES): CCc1c(N2CCN(C(=O)c3ncnc(C)c3O)CC2)c(=O)c2nc3ccccc3nc2n1CC(=O)Nc1ccc(C(F)(F)F)cc1Cl
